Source: paper PMC6332004, “Transport of Twelve Coumarins from Angelicae Pubescentis Radix across a MDCK-pHaMDR Cell Monolayer—An in Vitro Model for Blood-Brain Barrier Permeability” (Molecules, 2015)

System: MDCK-pHaMDR cell monolayer
Experiment: Bidirectional transport across MDCK-pHaMDR cell monolayer (in vitro BBB model)
Settings: well-absorbed Papp >1 × 10^−5 cm/s, poorly absorbed <1 × 10^−6 cm/s

SMILES	absorption class through the BBB according to Papp AP-BL
CC(C)=CCOc1c2ccoc2cc2oc(=O)ccc12 [Compound 10, isoimperatorin]	moderately absorbed
C/C=C(/C)C(=O)OC(C)(C)[C@@H]1Cc2c(ccc3ccc(=O)oc23)O1 [Compound 11, columbianadin]	moderately absorbed
